Literature values in patent publication US20060205733A1, “Endothelin a receptor antagonists in combination with phosphodiesterase 5 inhibitors and uses thereof” (Encysive Pharmaceuticals, priority 2004, published 2006).

Chains of the proteins cited; added tags and fusions are not shown. Residues count along the entry.
UniProt P25101, 21-427 limits assumed: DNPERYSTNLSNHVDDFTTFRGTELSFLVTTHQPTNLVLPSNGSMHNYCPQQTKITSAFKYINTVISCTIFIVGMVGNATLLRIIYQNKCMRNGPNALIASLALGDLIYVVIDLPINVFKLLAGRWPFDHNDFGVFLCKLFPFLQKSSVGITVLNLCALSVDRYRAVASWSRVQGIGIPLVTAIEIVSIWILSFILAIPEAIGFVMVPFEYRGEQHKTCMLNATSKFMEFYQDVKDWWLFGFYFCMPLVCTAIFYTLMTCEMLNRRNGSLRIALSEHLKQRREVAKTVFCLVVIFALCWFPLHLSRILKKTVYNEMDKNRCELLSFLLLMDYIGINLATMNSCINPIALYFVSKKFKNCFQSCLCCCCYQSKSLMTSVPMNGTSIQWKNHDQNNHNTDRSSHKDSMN
UniProt P24530, 27-442 limits assumed: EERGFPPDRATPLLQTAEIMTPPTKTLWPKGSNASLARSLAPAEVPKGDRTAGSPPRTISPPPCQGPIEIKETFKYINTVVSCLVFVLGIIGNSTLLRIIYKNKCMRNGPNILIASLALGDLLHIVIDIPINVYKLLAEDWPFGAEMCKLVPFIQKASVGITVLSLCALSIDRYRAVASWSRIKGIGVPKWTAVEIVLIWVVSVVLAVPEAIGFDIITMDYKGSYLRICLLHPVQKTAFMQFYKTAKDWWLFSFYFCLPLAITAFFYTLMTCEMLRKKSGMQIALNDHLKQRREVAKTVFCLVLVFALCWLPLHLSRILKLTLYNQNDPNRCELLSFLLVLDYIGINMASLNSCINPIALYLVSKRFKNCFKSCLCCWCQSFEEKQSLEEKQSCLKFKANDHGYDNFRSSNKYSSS

Legend:
ETA = ETA (Homo sapiens, UniProt P25101); conditions: ETA versus ETB, Table 2; cited from earlier work
ETB = ETB (Homo sapiens, UniProt P24530); conditions: read-out: Binding K1 (nM) to ETB; cited from earlier work

## CC(C)C[C@@H]1NC(=O)[C@@H](c2cccs2)NC(=O)[C@H](CC(=O)O)NC(=O)[C@H](CC(=O)N2CCN(c3ccccc3)CC2)NC(=O)[C@@H](CC(=O)O)NC(=O)[C@@H](Cc2c[nH]c3ccccc23)NC1=O
ETA
  Selectivity: 454
ETB
  Ki: 690 nM
